The values below come from US20240082282A1 (priority 2020, published 2024).

This assay relates to B. burgdorferi N40. In words: Mouse infection model (IP injection, oral gavage). The settings on record: 75 mg/kg twice per day intraperitoneally for 5 days; control 4/4.

As to Hygromycin A, the “Mice with positive cultures or PCRs for B. burgdorferi” value is on record as 0/4.
